Consider two compounds from article PMC6155811, “Effect of Phenolic Compounds from Elderflowers on Glucose- and Fatty Acid Uptake in Human Myotubes and HepG2-Cells” (Molecules : A Journal of Synthetic Chemistry and Natural …, 2017).

The chains behind the UniProt entries cited, without tags or fusion partners. Where a name states a change or a piece, a line headed by the entry shows the natural chain unless it says otherwise.
UniProt P80457, whole entry: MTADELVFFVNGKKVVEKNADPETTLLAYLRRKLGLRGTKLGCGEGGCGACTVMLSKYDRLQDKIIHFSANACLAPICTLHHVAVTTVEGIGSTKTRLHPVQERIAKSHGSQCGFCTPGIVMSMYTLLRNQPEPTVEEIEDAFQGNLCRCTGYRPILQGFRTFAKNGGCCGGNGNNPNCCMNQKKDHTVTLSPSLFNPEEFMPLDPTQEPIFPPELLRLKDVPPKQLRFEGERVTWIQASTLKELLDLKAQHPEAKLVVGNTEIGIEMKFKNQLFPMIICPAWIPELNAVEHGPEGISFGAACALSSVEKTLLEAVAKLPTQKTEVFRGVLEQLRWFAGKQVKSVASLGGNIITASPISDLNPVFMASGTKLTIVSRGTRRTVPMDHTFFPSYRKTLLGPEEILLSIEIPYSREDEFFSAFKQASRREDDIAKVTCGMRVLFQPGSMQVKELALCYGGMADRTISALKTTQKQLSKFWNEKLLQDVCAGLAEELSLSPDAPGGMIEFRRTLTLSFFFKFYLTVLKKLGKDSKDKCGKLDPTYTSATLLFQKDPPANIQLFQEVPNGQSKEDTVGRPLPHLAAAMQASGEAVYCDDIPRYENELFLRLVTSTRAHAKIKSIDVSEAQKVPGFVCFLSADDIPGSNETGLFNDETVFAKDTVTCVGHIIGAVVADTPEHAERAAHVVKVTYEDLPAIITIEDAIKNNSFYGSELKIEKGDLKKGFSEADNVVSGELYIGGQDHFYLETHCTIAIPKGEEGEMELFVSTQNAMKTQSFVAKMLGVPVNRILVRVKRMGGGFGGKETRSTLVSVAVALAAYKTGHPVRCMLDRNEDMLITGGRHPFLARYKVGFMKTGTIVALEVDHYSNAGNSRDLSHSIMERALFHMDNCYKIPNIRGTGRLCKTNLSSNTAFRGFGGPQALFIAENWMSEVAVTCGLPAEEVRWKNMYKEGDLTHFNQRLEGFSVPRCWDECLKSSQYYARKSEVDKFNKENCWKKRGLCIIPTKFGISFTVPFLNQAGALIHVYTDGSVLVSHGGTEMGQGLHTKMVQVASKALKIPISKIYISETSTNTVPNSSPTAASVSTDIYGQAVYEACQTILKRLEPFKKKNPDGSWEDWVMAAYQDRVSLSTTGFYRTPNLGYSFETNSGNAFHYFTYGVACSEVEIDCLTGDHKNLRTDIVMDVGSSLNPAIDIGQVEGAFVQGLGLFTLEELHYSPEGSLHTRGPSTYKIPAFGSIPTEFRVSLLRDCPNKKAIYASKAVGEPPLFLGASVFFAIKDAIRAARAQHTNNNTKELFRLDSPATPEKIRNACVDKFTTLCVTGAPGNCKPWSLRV
UniProt P53341: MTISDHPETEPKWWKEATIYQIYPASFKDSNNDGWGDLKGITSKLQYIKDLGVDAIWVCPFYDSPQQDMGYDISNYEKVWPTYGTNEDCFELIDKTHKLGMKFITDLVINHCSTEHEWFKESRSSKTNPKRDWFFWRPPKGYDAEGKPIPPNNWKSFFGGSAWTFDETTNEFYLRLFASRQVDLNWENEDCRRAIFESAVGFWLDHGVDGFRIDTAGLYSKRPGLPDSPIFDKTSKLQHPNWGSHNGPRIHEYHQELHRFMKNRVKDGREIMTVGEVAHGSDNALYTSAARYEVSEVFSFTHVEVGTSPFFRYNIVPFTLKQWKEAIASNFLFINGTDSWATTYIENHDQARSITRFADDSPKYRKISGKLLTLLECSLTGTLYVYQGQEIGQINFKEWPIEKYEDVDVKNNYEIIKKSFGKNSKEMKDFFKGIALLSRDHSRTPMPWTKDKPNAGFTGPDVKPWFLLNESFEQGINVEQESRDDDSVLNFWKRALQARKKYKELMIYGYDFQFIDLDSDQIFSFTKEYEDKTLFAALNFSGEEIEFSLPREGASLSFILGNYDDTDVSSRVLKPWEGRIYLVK

The target of experiment [1] is T1, xanthine oxidase from bovine milk (Bos taurus, UniProt P80457).
T1 construct: xanthine oxidase from bovine milk; purchased Sigma-Aldrich (St. Louis, MO, USA); host or cells: bovine milk
Briefly: Inhibition of xanthine oxidase. It counts as biochemical. Particulars: phenolic compounds and metabolites; IC50 ± SD; read-out: XO IC50. On the procedure:
The XO inhibitory activity with hypoxanthine as the substrate was carried out previously described. Test substances were dissolved in DMSO or water.

Experiment [2] addresses T2, Baker's yeast α-glucosidase (Saccharomyces cerevisiae, UniProt P53341).
T2 construct: purchased Sigma-Aldrich Chemie GmbH (Steinheim, Germany)
Briefly: biochemical. The conditions noted are these: α-Glucosidase IC50, phenolic compounds and metabolites; IC50 ± SD. On the procedure:
The α-glucosidase inhibitory activity of the extracts was assessed according to the method described by Ranilla, et al.. Baker’s yeast α-glucosidase (EC 3.2.1.20) was purchased from Sigma-Aldrich Chemie GmbH (Steinheim, Germany).

For orientation: IC50 means the concentration that inhibits the measured activity by half. Consider `O=c1c(O)c(-c2ccc(O)cc2)oc2cc(O)cc(O)c12` [Kaempferol], for which the IC50 in experiment [1] was found to be 1.8 ± 0.3 µM.

On to `O=C1C[C@@H](c2ccc(O)cc2)Oc2cc(O)cc(O)c21` [Naringenin], for which the IC50 in experiment [2] came to 7.5 ± 1.1 µM.
